scFv variants of Ab-14 (light chain) against a SARS-CoV-2 spike peptide

Reference: Li et al. 2023, doi:10.1038/s41467-023-39022-2. File: FLAb, binding data.

Binding partner: SARS-CoV-2 spike HR2 peptide, sequence PDVDLGDISGINAS.

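The parent was found by panning a naive human phage display library on the peptide. These sequences belong to a second round, designed from the earlier measurements on random variants of the parent. Their group label is 14L_GP_Gibbs (GP: Gaussian process model; Gibbs: Gibbs sampling; a sequence that several methods proposed may carry one label only). The assay is AlphaSeq: two haploid yeast populations carry antibody and antigen on their surface. Mating (16 h, 30 °C) was followed by selection of diploids and sequencing of their barcodes. Each replicate has its own calibration line, from reference interactions of the BCL2 family. Mating was done six times.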

Parent: Ab-14, a human scFv built as VH, a 15-residue (Gly4Ser)3 linker, VL. Only the CDRs of the light chain vary.
VH: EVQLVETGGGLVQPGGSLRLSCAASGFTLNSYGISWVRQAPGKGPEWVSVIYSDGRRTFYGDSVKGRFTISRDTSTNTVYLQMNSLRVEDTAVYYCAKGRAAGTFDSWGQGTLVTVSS
VL: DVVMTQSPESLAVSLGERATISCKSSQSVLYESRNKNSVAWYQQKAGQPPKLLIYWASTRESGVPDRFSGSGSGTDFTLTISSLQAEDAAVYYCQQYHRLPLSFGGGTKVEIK

Changes read parent residue, position, new residue, counted from the first residue of the VL shown. Values are log10 of the apparent Kd in nM; lower means stronger binding. A mean of the replicates is given; it leaves out those without a signal. A pair that was not seen in that replicate is written "ND"; this usually means weak binding, but a binder can also be missed.

changes | log10 Kd (nM) by replicate | mean log10 Kd (nM) | empty controls
S25L+S26M+Q27G+V29M+S33Q+N35M+W56N+T59Q+E61M | 0.79 / 0.80 / 0.62 / 0.73 / 0.71 / 0.89 | 0.76 | 3/18 (3.18)
S25F+S26P+L30G+S33T+W56E+T59Q+S62Q | 0.22 / -0.02 / 0.11 / -0.19 / -0.18 / -0.08 | -0.02 | 1/18 (2.75)
S25I+S28F+V29Y+L30E+Y31M+W56S+E61M | 0.01 / -0.07 / -0.11 / -0.36 / -0.33 / -0.55 | -0.23 | 0/18
S25C+S26D+S28W+L30D+E32G+S33D+W56D | 0.14 / -0.25 / -0.09 / -0.46 / -0.29 / -0.37 | -0.22 | 0/18
S25L+V29T+L30E+N35M+W56N+T59L+S62Q | 0.52 / 0.51 / 0.15 / 0.13 / 0.36 / 0.34 | 0.33 | 2/18 (2.69)
S25I+S26F+V29W+L30G+Y31M+S33Q+K36V+W56H+T59Q+E61L+S62D | 0.46 / 0.32 / 0.23 / 0.33 / 0.32 / 0.38 | 0.34 | 2/18 (3.08)
K24H+S25L+V29G+S33M+W56Q+T59Q+E61L+S62Q | 0.32 / 0.09 / 0.10 / 0.05 / 0.03 / 0.30 | 0.15 | 1/18 (3.40)
S25V+V29N+K36A+S38N+W56N+T59L | -0.45 / -0.27 / -0.18 / -0.66 / -0.58 / -0.34 | -0.41 | 0/18
S25V+S26D+L30G+Y31G+E32L+K36Q+S38A+W56A | -0.17 / -0.15 / -0.55 / -0.23 / -0.49 / -0.17 | -0.29 | 0/18
S25F+V29Q+L30P+N35M+K36F+W56N+T59L+E61F | 1.62 / 1.49 / 3.17 / 1.29 / 0.85 / 1.46 | 1.65 | 0/18
S25L+S26E+Q27N+V29N+K36G+W56N+S62H | 0.36 / 0.45 / 0.31 / 0.13 / 0.41 / 0.55 | 0.37 | 0/18
S25W+Q27W+V29W+Y31L+N35W+K36W+W56N+T59L | 0.65 / 0.71 / 0.56 / 0.38 / 0.47 / 0.75 | 0.59 | 0/18
S25V+Q27E+V29E+W56N+T59Y | 0.13 / 0.00 / 0.11 / 0.09 / 0.27 / 0.30 | 0.15 | 5/18 (3.10)
K24F+S25L+V29W+S33D+N35P+W56N+E61M | 0.50 / 0.45 / 0.12 / 0.21 / 0.27 / 0.40 | 0.32 | 0/18
S25Q+Q27K+S28M+L30M+Y31E+E32G+W56E+T59Q+S62E | 0.11 / 0.01 / -0.19 / -0.15 / 0.08 / 0.14 | 0.00 | 2/18 (2.00)
S25C+S26K+V29S+L30D+K36F+W56N+E61C | 0.38 / 0.28 / 0.19 / 0.25 / 0.18 / 0.41 | 0.28 | 0/18
S25I+N35A+K36Q+S38A+W56E+E61C+S62D | 0.26 / 0.10 / -0.04 / -0.21 / -0.10 / 0.09 | 0.02 | 1/18 (2.92)
S25V+Q27Y+L30E+E32Q+S33E+W56E+T59Q | 0.58 / 0.36 / 0.21 / -0.05 / 0.26 / 0.36 | 0.29 | 0/18
S25L+S26M+Q27G+V29M+L30E+S38A+W56E+T59H | 0.15 / 0.09 / -0.11 / -0.18 / -0.22 / -0.05 | -0.05 | 0/18
K24I+S25L+Q27A+V29E+E32G+S33D+N35M+W56N+T59Q | -0.08 / 0.00 / 0.08 / -0.20 / -0.03 / 0.00 | -0.04 | 0/18
S25L+V29M+S38N+W56E+T59Q+S62Q+Q96S | 0.24 / 0.14 / 0.11 / -0.07 / -0.02 / 0.28 | 0.11 | 0/18
S25Q+L30P+Y31Q+E32G+S33E+W56N+T59Y+E61L | 1.04 / 0.59 / 0.31 / 0.56 / 0.37 / 0.62 | 0.58 | 1/18 (3.72)
S25L+S28E+V29M+L30E+N37A+W56H | ND / ND / 1.22 / 0.36 / 0.63 / 0.72 | 0.73 | 0/18
K24A+S25L+Q27M+V29D+Y31M+K36W+W56H+S62E | 0.17 / 0.53 / 0.21 / 0.38 / 0.41 / 0.55 | 0.37 | 2/18 (3.22)
S25F+Q27G+S28M+V29D+K36G+W56D+E61S | 0.52 / 0.37 / 0.12 / 0.74 / 0.57 / 0.89 | 0.53 | 0/18
S25L+S26Q+V29Q+N35W+K36Q+W56Q+T59Q+S62V | 0.32 / -0.09 / -0.18 / -0.47 / -0.35 / -0.38 | -0.19 | 0/18
S25L+Q27G+V29Q+K36S+W56N+A57G+Q96D | -0.37 / -0.30 / -0.18 / -0.07 / -0.14 / -0.13 | -0.20 | 0/18
S25L+L30P+S33E+N35C+K36F+W56H+T59Q | 0.45 / 0.14 / 0.48 / -0.01 / 0.07 / 0.17 | 0.22 | 0/18
S25L+R34T+K36S+N37Q+W56D+E61Y | 0.34 / 0.06 / 0.29 / -0.09 / 0.06 / 0.30 | 0.16 | 1/18 (2.59)
S25L+Q27G+V29M+S33L+K36L+W56H+T59Q+E61M | 1.22 / 1.26 / 0.14 / 0.94 / 1.47 / 1.53 | 1.09 | 0/18
S25F+S26Q+V29Q+S33K+K36Q+W56S+T59Y+E61M | 0.60 / 0.47 / 0.85 / 0.72 / 0.71 / 0.60 | 0.66 | 1/18 (1.75)
S25L+S26Q+Q27W+V29H+E32G+N35M+W56H+T59Q+Q96C | ND / ND / ND / ND / 2.48 / 3.41 | 2.95 | 0/18
S25M+S26E+Q27N+V29N+L30G+W56N | -0.42 / -0.48 / -0.54 / -0.46 / -0.46 / -0.30 | -0.44 | 4/18 (2.33)
S25F+S26E+Q27G+V29M+K36G+W56Q+E61S | 0.53 / 0.48 / 0.23 / 0.01 / 0.25 / 0.28 | 0.30 | 2/18 (2.63)
S25L+Q27G+V29M+N35M+W56Q+T59V+E61M | 0.66 / 0.27 / -0.10 / 0.54 / 0.37 / 0.56 | 0.38 | 0/18
Y31Q+S33D+K36S+W56N+S62L | 0.60 / 0.83 / 0.57 / 0.59 / 0.67 / 0.70 | 0.66 | 5/18 (2.44)
S25W+Y31G+S33E+N37M+W56N+T59Q | -0.03 / -0.14 / -0.05 / 0.18 / 0.03 / 0.02 | 0.00 | 0/18
S25L+Q27M+S28L+Y31M+K36H+W56S+S58N+S62E | ND / ND / ND / ND / ND / ND | ND | 0/18
S25V+S26V+Q27M+L30N+Y31G+E32L+S33Q+W56Q | 0.09 / 0.29 / 0.25 / 0.07 / 0.22 / 0.18 | 0.18 | 0/18
S25F+K36S+W56N+S58Q+E61L+S62W | 0.41 / 0.49 / 0.08 / 0.39 / 0.52 / 0.31 | 0.37 | 0/18
S25L+S26M+Q27P+W56N+T59Y+S62Q | 0.03 / 0.00 / -0.29 / -0.19 / -0.08 / 0.01 | -0.09 | 2/18 (2.82)
S25V+Q27C+L30M+Y31L+S38A+W56E+T59Q | 0.09 / -0.03 / -0.22 / -0.28 / -0.21 / 0.02 | -0.10 | 2/18 (2.78)
S25V+S26D+Q27F+V29W+L30W+W56N+S62H | 0.45 / 0.33 / 0.38 / 0.08 / 0.11 / 0.45 | 0.30 | 0/18
S33D+R34K+K36V+W56H+T59Q+E61M | 1.39 / 1.11 / 0.93 / 1.09 / 1.26 / 1.15 | 1.16 | 0/18
S25L+Q27L+L30E+Y31L+N35L+W56H+S62W | 0.54 / 0.60 / 0.71 / 0.71 / 0.80 / 0.64 | 0.67 | 1/18 (3.13)
S25W+Q27I+S28L+V29D+Y31G+E32G+S33D+W56H+T59C+S62Q | 1.37 / 1.21 / 0.99 / 0.80 / 1.23 / 1.32 | 1.15 | 0/18
S26G+V29F+Y31Q+W56H+T59M | 1.13 / 0.87 / 1.04 / 0.67 / 0.67 / 1.00 | 0.90 | 2/18 (2.42)
S26Q+V29W+L30E+E32G+S33D+W56N+T59Q+S62D | 1.41 / 1.40 / ND / 0.94 / 1.44 / 1.33 | 1.30 | 0/18
S25L+S26E+Q27I+L30M+Y31Q+W56N+S62V | -0.24 / -0.44 / -0.54 / -0.62 / -0.48 / -0.52 | -0.47 | 4/18 (2.59)
S25W+L30D+N37M+W56N+A57G | 0.07 / 0.09 / -0.05 / -0.14 / 0.01 / 0.10 | 0.01 | 3/18 (2.71)
S25A+S26Q+V29D+W56S+E61S+S103Q | 0.46 / 0.42 / 0.39 / 0.51 / 0.59 / 0.70 | 0.51 | 1/18 (1.31)

In the paper, a design with two or fewer of six values counts as a poor binder. Of ten entries with the parent sequence, four were seen in most replicates (averages 0.34 to 2.37), three in one and three in none, so single entries are noisy. Values of this round are not directly comparable with the first-round values of the same sequences. As a blank, each scFv also met three strains without target: over all light chain designs, 4% of these pairings were detected, typically at 2.64 and seldom below 1.59. For each scFv, signals with the empty controls are counted beside the result, with their mean in brackets.